Data: patent publication US9822179B2, “Recombinant TNF ligand family member polypeptides with antibody binding domain and uses therefor” (UNIVERSITAT STUTTGART, priority 2011, dated 2017)

Legend:
[1] = test system: Colo205 cells; assay: Growth of Colo205 cells over four days, MTT; format: cell-based; conditions: 4-day culture, 50 ng/ml EGF, 10 ng/ml bortezomib
Protocol: (§1) After 16 h, cell viability was determined using MTT staining (Colo 205) or crystal violet staining (Huh-7) and data were normalized using bortezomib-treated cells as control (mean SEM, n=3). (B) 1×10^4 Colo205 cells per well were grown in 96-well plates using medium with 0.1% FCS. […] (C) 1×10^4 Huh-7 cells per well were grown in 96-well plates and treated with 20 ng/ml bortezomib or with a combination of bortezomib and 10 μM zVADfmk.

[2] = test system: Huh-7 cells; assay: Growth of Huh-7 cells over three days, MTT; format: cell-based; conditions: 20 ng/ml bortezomib
Protocol: as §1

## Cetuximab [reference compound]
[1]
  effect on growth of cells: did not substantially affect growth
[2]
  effect on growth of cells: did not substantially affect growth
